From patent publication US12383566B2, “Inhibition of SLC transporter activity or expression to attenuate anthracycline-induced cardiotoxicity” (Northwestern University, priority 2021, dated 2025)

System: Mouse model of doxorubicin-induced cardiomyopathy
Test: Mouse model of doxorubicin-induced cardiomyopathy, echocardiographic evaluation
Format: in vivo, C57BL/6J mice
Details: Week 3; Mean
Description: Procedures followed were in accordance with Stanford University's institutional guidelines. […] For the control group, we treated mice with corn oil in the same schedule as desipramine administration. We recorded an echocardiogram once a week (day 0, day 7, day 14, and day 21) and terminated the experiment at day 21.
For the control group, we treated mice with corn oil in the same schedule as desipramine administration. We recorded an echocardiogram once a week (day 0, day 7, day 14, and day 21) and terminated the experiment at day 21.
Echocardiographic evaluation. Mice were studied at baseline and weekly during the protocol under light anesthesia with isoflurane (induction 3%, maintenance 1.5%). 2D images in the parasternal short axis were obtained with a GE Vivid 7 ultrasound system (GE Healthcare) equipped with a 13 MHz transducer. Left ventricular end-systolic (LVESD) and end-diastolic (LVEDD) dimensions were measured and left ventricular fractional shortening (FS) was calculated.

## COc1cccc2c1C(=O)c1c(O)c3c(c(O)c1C2=O)C[C@@](O)(C(=O)CO)C[C@@H]3O[C@H]1C[C@H](N)[C@H](O)[C@H](C)O1 [DOX, doxorubicin]
  IVSs (LV interventricular septum thickness at systole): 0.97 mm
